This assay has as its target Serine/threonine-protein kinase mTOR (Homo sapiens, UniProt P42345).

The results in this text go back to BindingDB's records for patent US9828378 (Intellikine, 2017).

With `CC(C)n1nc(-c2cc3c(Cl)c(O)ccc3[nH]2)c2c(N)ncnc21` [US9828378, # 22], the IC50 is below 5 nM.

The term IC50 denotes the concentration that inhibits the measured activity by half. A lower IC50 goes with greater potency in that assay.
